Experimental data: ChEMBL document CHEMBL5260839 (J Med Chem, 2019)

System: ML-2
Assay: cells
Details: Homo sapiens, ML-2, 96 h

O=C(O)c1ccc(NC(=O)[C@@H]2NC3(CCCCC3)[C@@]3(C(=O)Nc4cc(Cl)ccc43)[C@H]2c2cccc(Cl)c2F)cc1
IC50: 0.151 µM
